# Yeast mating assay 2: variants of the scFv Ab-91

Target: peptide PDVDLGDISGINAS, taken from heptad repeat 2 (HR2) of SARS-CoV-2 spike.

The variants keep the light chain, the linker and the frameworks of Ab-91 (scFv order VL, a 15-residue (Gly4Ser)3 linker, VH).
VL: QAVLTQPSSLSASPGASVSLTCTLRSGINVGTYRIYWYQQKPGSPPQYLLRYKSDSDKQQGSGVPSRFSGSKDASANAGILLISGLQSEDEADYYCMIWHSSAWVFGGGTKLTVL
VH: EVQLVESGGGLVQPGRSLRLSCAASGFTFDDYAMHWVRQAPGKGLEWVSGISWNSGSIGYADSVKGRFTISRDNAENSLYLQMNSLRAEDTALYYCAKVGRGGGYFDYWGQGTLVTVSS

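The starting antibody came from a phage panning campaign against this peptide. In library AAYL51, one, two or three CDR residues were substituted; doubles and triples were drawn at random. AlphaSeq pools MATa yeast showing the antibodies with MATalpha yeast showing the peptide. Binding brings cells together so that they mate, and sequencing counts the barcode pairs among the diploids. The ratio of observed to expected reads was calibrated, replicate by replicate, on BCL2-family standards whose Kd was known from biolayer interferometry. The assay was run in three technical replicates.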

Changes read parent residue, position, new residue, counted from the first residue of the VH shown. All variants listed here change G50 of the VH, counted from its first residue. The Kd shown is the geometric mean over detected replicates; a lower Kd is a better binder. Where no diploid with the target was found in any replicate, the entry reads "nd": below detection, most likely a poor binder, though not proof of it.

* G50M/N54W/G102C = nd (0 of 3 replicates; controls 0 of 9)
* G50F/D107W = nd (0 of 3 replicates; controls 1 of 9)
* G50C/Y60W/K65Y = 69 µM (1 of 3 replicates; controls 1 of 9)
* D30W/G50N/S55N = 110 µM (2 of 3 replicates; controls 2 of 9)
* D31W/G50E/S52V = nd (0 of 3 replicates; controls 3 of 9)
* H35S/G50S/S52H = 250 µM (3 of 3 replicates; controls 1 of 9)
* G50F/Y60Q/D62N = 5.6 µM (1 of 3 replicates; controls 1 of 9)
* G50T/D62L/D107A = nd (0 of 3 replicates; controls 0 of 9)
* G50L/G56V/A61R = nd (0 of 3 replicates; controls 1 of 9)
* G50I/W53K/V64D = 8.7 µM (1 of 3 replicates; controls 0 of 9)
* F27W/D30G/G50V = nd (0 of 3 replicates; controls 1 of 9)
* G26D/G50H/K65W = nd (0 of 3 replicates; controls 2 of 9)
* H35Q/G50F/G59A = 4.4 µM (1 of 3 replicates; controls 0 of 9)
* G50H/I58R/F106M = 36 µM (2 of 3 replicates; controls 2 of 9)
* G50K/S57G/D62Q = nd (0 of 3 replicates; controls 0 of 9)
* M34W/G50V/G104C = nd (0 of 3 replicates; controls 6 of 9)
* T28S/G50T/V64W = nd (0 of 3 replicates; controls 0 of 9)
* A33Y/G50R/G103S = 8.3 µM (1 of 3 replicates; controls 3 of 9)
* G50H/S52C/D107T = nd (0 of 3 replicates; controls 0 of 9)
* M34R/G50N/G100I = nd (0 of 3 replicates; controls 0 of 9)
* G50F/I58R/K65Q = nd (0 of 3 replicates; controls 2 of 9)
* G50W/S55P/Y108C = 70 µM (3 of 3 replicates; controls 3 of 9)
* G50I/Y60I = nd (0 of 3 replicates; controls 0 of 9)
* G50A/G56I/D62M = nd (0 of 3 replicates; controls 2 of 9)
* G50M/G103L = 65 µM (2 of 3 replicates; controls 4 of 9)
* G50H/W53E/S57D = 60 µM (3 of 3 replicates; controls 5 of 9)
* G50T/W53A/A61R = nd (0 of 3 replicates; controls 0 of 9)
* A33H/G50Q/F106G = nd (0 of 3 replicates; controls 0 of 9)
* A33Y/G50Y = nd (0 of 3 replicates; controls 0 of 9)
* G50L/S63M = 50 µM (1 of 3 replicates; controls 0 of 9)
* D30L/G50S = nd (0 of 3 replicates; controls 1 of 9)
* D31M/G50A/S57E = 11 µM (3 of 3 replicates; controls 6 of 9)
* G50L/R101H = 36 µM (2 of 3 replicates; controls 0 of 9)
* G50Y/A61D/Y108D = nd (0 of 3 replicates; controls 0 of 9)
* G26W/G50S/G103N = 140 µM (1 of 3 replicates; controls 2 of 9)
* G50Y/V99D/F106S = 28 µM (1 of 3 replicates; controls 3 of 9)
* M34V/G50E/A61S = nd (0 of 3 replicates; controls 0 of 9)
* G50N/I51V/A61Y = 37 µM (1 of 3 replicates; controls 2 of 9)
* D31K/G50S/G59R = 18 µM (1 of 3 replicates; controls 0 of 9)
* T28G/A33V/G50Q = 3.3 µM (1 of 3 replicates; controls 0 of 9)

The first 6 variants above that were never detected:

changes	apparent Kd	detected	control signals
G50M/N54W/G102C	nd	0/3	0/9
G50F/D107W	nd	0/3	1/9
D31W/G50E/S52V	nd	0/3	3/9
G50T/D62L/D107A	nd	0/3	0/9
G50L/G56V/A61R	nd	0/3	1/9
F27W/D30G/G50V	nd	0/3	1/9

Background: pairings of library AAYL51 with three empty control strains gave a value in 21% of cases (median 34 µM, 5th percentile 1.8 µM). Values in that range, when seen in few replicates, are hard to tell from nonspecific mating. Also given: how often the same scFv was detected with the empty control strains.

Values reported by Engelhart et al. 2022, doi:10.1038/s41597-022-01779-4 (FLAb copy).